Laboratory results reported in patent publication US20110172163A1, “Novel Protease Inhibitors” (QUEENSLAND UNIVERSITY OF TECHNOLOGY, priority 2008, published 2011).

Biological target: T1, bovine α-chymotrypsin (Bos taurus, UniProt P00766)
T1 construct: purchased Sigma Chemicals
Assay: Inhibitor kinetics: α-chymotrypsin amidolytic activity
Assay type: biochemical
Settings: substrate W-pNA (0.2 mM)
Protocol: All enzymes and substrates were obtained from Sigma Chemicals if not otherwise specified. […] The release of pNa moiety was monitored as described above for 7 minutes with each point being the average of three independent triplicate reactions. IC50 was determined using the Prism 5 software suite (GraphPad software Inc.).

Sunflower trypsin inhibitor [SFTI-1, reference compound]
IC50: 1800 nM
